# Antibody variant affinities, Ab-14 heavy chain, assay B

Data: MIT Lincoln Laboratory AlphaSeq set, Li et al. 2023, doi:10.1038/s41467-023-39022-2, as distributed in FLAb.

Target: peptide PDVDLGDISGINAS, taken from heptad repeat 2 (HR2) of SARS-CoV-2 spike.

Parent scFv Ab-14: VH joined to VL by the linker GGGGSGGGGSGGGGS. Changes lie in the heavy chain CDRs alone.
VH: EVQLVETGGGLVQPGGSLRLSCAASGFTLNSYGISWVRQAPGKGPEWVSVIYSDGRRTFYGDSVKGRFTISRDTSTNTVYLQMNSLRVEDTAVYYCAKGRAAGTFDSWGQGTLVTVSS
VL: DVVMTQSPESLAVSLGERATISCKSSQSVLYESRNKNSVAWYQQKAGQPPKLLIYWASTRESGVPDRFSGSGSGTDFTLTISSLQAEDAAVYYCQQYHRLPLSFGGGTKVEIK

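The starting antibody came from a phage panning campaign against this peptide. Designed CDR sequences, proposed from the first random library and measured here. Group labels follow the data file (Ctrl: baseline library sampled from a position-specific scoring matrix, with some repeated check sequences; En: ensemble of fine-tuned language models; GP: Gaussian process model; GPLM: also part of the Gaussian process libraries; HC: hill climbing; Gen: genetic algorithm; Gibbs: Gibbs sampling; a sequence that several methods proposed may carry one label only). The assay is AlphaSeq: two haploid yeast populations carry antibody and antigen on their surface. Mating (16 h, 30 °C) was followed by selection of diploids and sequencing of their barcodes. Read counts were normalised to the haploid input and turned into Kd by a linear fit to BCL2-family pairs of known affinity, for each replicate. Mating was done six times.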

The whole VH of each variant is written out.
Values are log10 of the apparent Kd in nM; lower means stronger binding.
Averages over replicates are reported, and they cover detected replicates only.
"nd" marks a missing value. The strain was present, yet no cells mated with the target were sequenced in any replicate, which points to weak or no binding.
The authors' rule: three or more of the six replicates give a measured affinity, fewer mean a poor binder.
As a blank, each scFv also met three strains without target: over all heavy chain designs, 1% of these pairings were detected, typically at 2.08 and seldom below 0.84. The control count says in how many pairings with the empty strains this scFv gave a signal.
Values of this round are not directly comparable with the first-round values of the same sequences.

VH	group	log10 Kd (nM), mean	detected	empty controls
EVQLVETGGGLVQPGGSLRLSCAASGFDINEYGISWVRQAPGKGPEWVSVIYADGMRKAYVQNVKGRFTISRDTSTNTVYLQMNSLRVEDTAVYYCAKGENSRSVFIWGQGTLVTVSS	En_Gibbs	nd	0 of 6	0 of 18
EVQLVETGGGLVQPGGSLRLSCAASGFDLEEYGISWVRQAPGKGPEWVSVIYADGMRTFYSDSVKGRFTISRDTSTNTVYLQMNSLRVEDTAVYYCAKGENAGTFDVWGQGTLVTVSS	En_HC	-0.10	6 of 6	0 of 18
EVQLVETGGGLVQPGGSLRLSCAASGFDLDEYGISWVRQAPGKGPEWVSVIYADGQRTAYADSVKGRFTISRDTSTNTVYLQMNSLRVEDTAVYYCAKGNTAGTFDQWGQGTLVTVSS	En_Gen	-0.44	6 of 6	0 of 18
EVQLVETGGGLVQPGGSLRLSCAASLFDLNSYGISWVRQAPGKGPEWVSVIYSDGRRTFYADSVKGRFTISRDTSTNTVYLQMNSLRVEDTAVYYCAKGRTAGTFDSWGQGTLVTVSS	GP_Gen	-0.12	6 of 6	0 of 18
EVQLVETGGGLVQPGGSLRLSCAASGFTLNEYGISWVRQAPGKGPEWVSVIYSDGRRTYYGDSEKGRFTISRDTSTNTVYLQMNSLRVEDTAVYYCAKTRAAGTFDSWGQGTLVTVSS	Ctrl	3.61	1 of 6	1 of 18
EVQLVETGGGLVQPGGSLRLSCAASGFTLNSYGRSWVRQAPGKGPEWVSVIYSDGRRTFYDDSVKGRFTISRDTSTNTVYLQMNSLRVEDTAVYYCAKGKAAGTFDSWGQGTLVTVSS	Ctrl	nd	0 of 6	0 of 18
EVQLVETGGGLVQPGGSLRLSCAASGFDLNEYGISWVRQAPGKGPEWVSVIYADGRRTFYADSVKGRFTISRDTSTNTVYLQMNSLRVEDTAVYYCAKGKTAGTFDQWGQGTLVTVSS	En_HC	-0.27	6 of 6	0 of 18
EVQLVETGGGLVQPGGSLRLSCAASGFQLNSYGISWVRQAPGKGPEWVSVIYSDGRRTFYADSVKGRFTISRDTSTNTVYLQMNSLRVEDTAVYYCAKGHAGGTFDSWGQGTLVTVSS	GP_HC	2.16	2 of 6	0 of 18
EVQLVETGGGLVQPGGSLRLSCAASGFTLNEYGISWVRQAPGKGPEWVSVIYSDGKRTFYGDSVKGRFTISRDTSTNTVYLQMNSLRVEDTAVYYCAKGRAAGTFISWGQGTLVTVSS	GPLM_HC	nd	0 of 6	0 of 18
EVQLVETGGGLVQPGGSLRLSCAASGFPLEEYGISWVRQAPGKGPEWVSVIYADGKRTFYTDAVKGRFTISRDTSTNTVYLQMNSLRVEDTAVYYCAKGTWGVFGLGWGQGTLVTVSS	En_Gibbs	nd	0 of 6	0 of 18
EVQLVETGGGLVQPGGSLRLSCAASGFDLNSYGISWVRQAPGKGPEWVSVIYSDGRRTFYGDDVKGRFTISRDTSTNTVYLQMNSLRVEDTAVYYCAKGQEAGTFDSWGQGTLVTVSS	GP_Gibbs	0.08	6 of 6	1 of 18
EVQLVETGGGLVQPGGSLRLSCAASGFNLDEYGVSWVRQAPGKGPEWVSVIYADGKRCQYANNVKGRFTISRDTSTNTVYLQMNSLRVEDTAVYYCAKGENAGFFMLWGQGTLVTVSS	En_Gibbs	nd	0 of 6	0 of 18
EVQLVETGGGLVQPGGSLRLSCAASGFTLNDYGISWVRQAPGKGPEWVSVIYSDGRRTFYGDSVKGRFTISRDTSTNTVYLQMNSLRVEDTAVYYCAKGRMAGTFDTWGQGTLVTVSS	GPLM_HC	nd	0 of 6	0 of 18
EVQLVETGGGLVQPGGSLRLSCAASGFDLNSYGISWVRQAPGKGPEWVSVIYSDGRRTFYGDRVKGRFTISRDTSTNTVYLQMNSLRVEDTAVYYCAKGKTAGTFDAWGQGTLVTVSS	GP_Gibbs	0.99	6 of 6	1 of 18
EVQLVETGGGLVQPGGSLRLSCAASGFSLNMYGISWVRQAPGKGPEWVSVIYSDGRRTFYADSVKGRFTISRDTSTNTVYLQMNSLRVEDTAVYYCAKGQAAGTFDSWGQGTLVTVSS	GPLM_Gen	0.78	6 of 6	0 of 18

The opening 2 entries, copied out:

VH	group	log10 Kd (nM), mean	detected	empty controls
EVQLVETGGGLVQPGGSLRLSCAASGFDINEYGISWVRQAPGKGPEWVSVIYADGMRKAYVQNVKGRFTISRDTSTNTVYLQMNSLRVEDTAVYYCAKGENSRSVFIWGQGTLVTVSS	En_Gibbs	nd	0 of 6	0 of 18
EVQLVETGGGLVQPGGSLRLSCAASGFDLEEYGISWVRQAPGKGPEWVSVIYADGMRTFYSDSVKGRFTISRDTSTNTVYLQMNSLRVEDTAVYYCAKGENAGTFDVWGQGTLVTVSS	En_HC	-0.10	6 of 6	0 of 18